For this assay, the target named is T1, LNK SH2 domain (Mus musculus, UniProt O09039).
T1 construct: DNA encoding the mouse LNK SH2 domain (residues 324–446) and an N-terminal NusA; NusA (N, cleaved yes); made in house; host or cells: E. coli (tuner (DE3), BL21(DE3) or C43)
The experiment in a line: SPR competition assay (immobilised IL6ST pY757 peptide). It counts as binding. As for the experimental part: SH2 domains typically bind ligands with a specific preference for amino acids at the −2 to +5 positions, relative to phosphotyrosine. […] To determine the contribution of individual residues, we made a series of mutations within the JAK2 phosphopeptide, and measured their affinity for the LNK SH2 domain via a surface plasmon resonance (SPR) competition assay (Fig. 3). The LNK SH2 domain was incubated with increasing concentrations of mutant JAK2 pY813 peptides before being passed over a chip coated with an immobilised low affinity phosphopeptide derived from a site on the intracellular domain of the IL-6 receptor, IL6ST. […] The +2 residue was not mutated as the structure indicates its sidechain points towards solvent.
The LNK SH2 domain has been proposed to interact with a suite of phosphorylated sites on various signalling proteins[16]–[19],[32]. […] In addition, binding to the activation loops of JAK2 and IRK, and pY785 of JAK3 were also examined. […]
SPR competition assays were performed on either a Biacore 4000 or 200 (GE Healthcare) in 10 mM HEPES (pH 7.4), 150 mM NaCl, 3.4 mM EDTA, 0.005% Tween 20 using a streptavidin coated chip and were regenerated in 50 mM NaOH, 1 M NaCl. […] Data was analysed using Prism, the response of LNK in the presence of the peptide was normalised to an LNK only control and then fitted as an IC50 curve via non-linear regression.

Protein sequences, listed by entry. Tags and fused reporters are not part of them. Residues count along the entry.
UniProt O09039, 324-446: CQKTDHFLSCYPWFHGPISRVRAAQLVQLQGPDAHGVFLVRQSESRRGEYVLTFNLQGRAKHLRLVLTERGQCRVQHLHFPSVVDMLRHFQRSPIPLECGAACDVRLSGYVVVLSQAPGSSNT

The structures appear in SMILES notation.

`CC(C)C[C@H](NC(=O)[C@H](CCCNC(=N)N)NC(=O)[C@H](CCCNC(=N)N)NC(=O)[C@H](Cc1ccc(OP(=O)(O)O)cc1)NC(=O)[C@H](Cc1c[nH]cn1)NC(=O)[C@H](C)NC(=O)[C@@H]1CCCN1C(=O)[C@@H](N)Cc1ccccc1)C(=O)N[C@@H](CCCNC(=N)N)C(=O)N[C@@H](Cc1c[nH]cn1)C(=O)N[C@@H](C)C(=O)N[C@@H](Cc1c[nH]c2ccccc12)C(=O)O` [MPL pY521] showed a 50% inhibitory concentration (IC50) of over 10 µM.

One may read the IC50 as the concentration needed to halve the response being measured. A lower IC50 goes with higher potency.

The values above are taken from article PMC8528861, “Structural and functional analysis of target recognition by the lymphocyte adaptor protein LNK” (Nature Communications, 2021).
